In the library only some 1.3% were active in any assay of this set; here they are far more common.
ARNT-TACC3 inh: disruptors of ARNT/TACC3 protein interaction, primary screen, biochemical, AlphaScreen, single concentration | Transforming acidic coiled-coil-containing protein 3 (Homo sapiens), Q9Y6A5 | AlphaScreen His-ARNT PAS-B/GST-TACC3 binding, luminescence; TACC3 fragment carries E629A point mutation | inhibition, % at 9.99 µM | actives 0.66% (n = 390,000) | AID 623870, 2012;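 active = mean inhibition of replicates at least 50% and at least half of replicates each reaching 50%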
E-selectin induc: E-selectin induction in HUVECs, primary screen, imaging, HUVEC, immunofluorescence imaging, single point | normalized: neutral wells 0, TNF-alpha wells 100 | AID 686992, 2013 | P16581 | actives 0.37% (n = 260,000) | activation, % at 7.58 µM;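 active = mean E-selectin-positive cell signal at least 10% of the positive control, reached in at least 60% of replicates, without over 20% cell loss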
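Material: HUVEC primary endothelial cells; Amount: 3,000 cells per well; Dosing: single concentration; Medium: EGM-2 growth medium on 0.1% gelatin-coated wells; Read-out basis: percent E-selectin-positive cells; Signal: immunofluorescence imaging; Control set: TNF-alpha, DMSO.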
AF4-AF9 inh: inhibitors of AF4 peptide binding to AF9, primary screen, biochemical, AlphaScreen, biotin-AF4 peptide, FLAG-AF9, single point | inhibition, % at 10 µM | actives 0.47% (n = 350,000) | Protein AF-9 (Homo sapiens), P42568;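 active = every replicate reaching a set inhibition limit, whatever the replicate mean, cut at about 25% in these data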
Yeast UUG start: alters start codon recognition fidelity in yeast | S. cerevisiae UUG-firefly luciferase reporter, luminescence/redox ratio | activity score, % at 18.7 µM | hit rate 0.13% among 350,000 | AID 602363;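 active means replicate mean at a twofold rise or more, about +100% in these data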;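 further: firefly luciferase made from a UUG start codon reports start codon fidelity; reporter light over untreated wells divided by growth signal over untreated wells; some hits fall short of that in this replicate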
S100A4 MyoIIA: inhibitors of S100A4-myosin IIA peptide binding, primary screen, biochemical, fluorescence polarization, TAMRA-MyoIIA peptide; inhibition, % at 10.7 µM; Protein S100-A4 (Homo sapiens), P26447; actives 0.14% (n = 360,000);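 active = mean inhibition of at least 70% across replicates, with every replicate also reaching that level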
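Test system: S100A4 monomer protein; Medium: HEPES pH 7.2 with CaCl2, KCl, NaCl, DTT, Triton; Probe or stimulus: TAMRA-labelled myosin IIA heavy-chain peptide probe, 5 nM; Doses: one dose per compound; Times: polarization read 5 min after assay mix addition, stable 5–60 min; Benchmarks: neutral control DMSO, positive control TFP.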
ERAP1 inh: human ERAP1 aminopeptidase inhibitors, primary screen, biochemical, single point, plate reader. Endoplasmic reticulum aminopeptidase 1 (Homo sapiens), Q9NZ08. recombinant ERAP1, Leu-AMC fluorescence, 60 min. inhibition, % at 10.7 µM. actives 0.15% (n = 340,000). AID 652197, 2013;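 active = mean replicate inhibition of at least 30%, or all replicates individually reaching that 30% level; inactive = mean below 30% and not every replicate reaching it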
Large screens that a line does not name were inactive.

The chains behind the UniProt entries cited, without tags or fusion partners.
Protein AF-9 (Homo sapiens), P42568, UniProt P42568, whole entry, looked up: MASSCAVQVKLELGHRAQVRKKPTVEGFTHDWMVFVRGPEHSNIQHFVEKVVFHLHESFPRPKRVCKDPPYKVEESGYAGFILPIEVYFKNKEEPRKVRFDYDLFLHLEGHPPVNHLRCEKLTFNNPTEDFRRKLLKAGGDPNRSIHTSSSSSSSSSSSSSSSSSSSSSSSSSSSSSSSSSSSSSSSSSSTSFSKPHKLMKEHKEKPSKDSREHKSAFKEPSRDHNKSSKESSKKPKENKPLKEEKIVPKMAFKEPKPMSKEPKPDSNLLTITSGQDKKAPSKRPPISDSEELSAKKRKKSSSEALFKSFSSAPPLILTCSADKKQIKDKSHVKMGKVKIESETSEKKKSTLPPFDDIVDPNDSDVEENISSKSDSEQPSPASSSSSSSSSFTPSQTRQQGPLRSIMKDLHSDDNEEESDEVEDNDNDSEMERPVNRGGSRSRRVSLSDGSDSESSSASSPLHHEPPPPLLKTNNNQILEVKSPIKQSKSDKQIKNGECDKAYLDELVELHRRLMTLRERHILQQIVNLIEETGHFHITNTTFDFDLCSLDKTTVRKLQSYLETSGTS

Cc1ccc(S(=O)(=O)Nc2ccc3c(c2)C(=O)N([C@@H](C)CO)C[C@@H](C)[C@@H](CN(C)S(C)(=O)=O)OCCCC[C@@H](C)O3)cc1	none
CN1CCN(c2ccc(NC(=O)c3sc4ccccc4c3Cl)cc2)CC1	none
COC(=O)c1ccc(N2CCN(C)CC2)c(NC(=O)c2sc3ccccc3c2Cl)c1	AF4-AF9 inh 26.2 (no result: E-selectin induc)
C[C@@H]1CN([C@@H](C)CO)C(=O)Cc2cc(NC(=O)Cn3cnnn3)ccc2O[C@H]1CN(C)S(=O)(=O)c1ccc(F)cc1	none
COc1ccc(/C=C(\NC(=O)c2ccccc2)C(=O)OC[C@@H]2CCC[N+]3(C)CCCCC23)cc1OC (stereo partly drawn)	ERAP1 inh 39.4
COc1cccc(CNC(=O)C[C@H]2C=C[C@@H](NS(=O)(=O)c3ccccc3OC)[C@H](CO)O2)c1	none
COc1ccc(C(=O)Oc2c(CN3CCOCC3)cc(Cl)c3cccnc23)cc1OC	none (no result: ARNT-TACC3 inh, Yeast UUG start)
O=C(Oc1c(CN2CCOCC2)cc(Cl)c2cccnc12)c1ccccc1F	ARNT-TACC3 inh 65.5 (no result: E-selectin induc, Yeast UUG start)
CN(C)C(=O)C[C@H]1C[C@@H]2c3cc(NC(=O)Nc4ccccc4)ccc3O[C@@H]2[C@@H](CO)O1	none (no result: AF4-AF9 inh, S100A4 MyoIIA, ERAP1 inh)
CC(=O)NC(c1cc(F)c2cccnc2c1O)C1CC1 (stereo not drawn)	ARNT-TACC3 inh 40.4 (no result: AF4-AF9 inh)
CC(=O)OC[C@H]1O[C@@H](Sc2cccc3cccnc23)[C@H](OC(C)=O)[C@@H](OC(C)=O)[C@H]1OC(C)=O	ARNT-TACC3 inh 63.5 (no result: E-selectin induc)
COc1cnc(-c2ccccn2)nc1Oc1ccccc1	ARNT-TACC3 inh 82.1 (no result: E-selectin induc)
COc1cnc(-c2ccccn2)nc1Oc1cccc(C(F)(F)F)c1	none (no result: ARNT-TACC3 inh, Yeast UUG start)
COc1cnc(-c2ccccn2)nc1Sc1ccc(F)cc1	ARNT-TACC3 inh 45.7 (no result: E-selectin induc, Yeast UUG start)
O=C(C[C@H]1CC[C@H](NC(=O)C2CCC2)[C@H](CO)O1)NCc1ccccc1Cl	none
N#Cc1ccc(OCC(=O)NCCCn2ccnc2)cc1	ARNT-TACC3 inh 69.4
O=C(NCCCn1ccnc1)Nc1ccc(Cl)c(Cl)c1	ARNT-TACC3 inh 65.5 (no result: E-selectin induc, AF4-AF9 inh, S100A4 MyoIIA, ERAP1 inh)
CCOC(=O)c1ccc(NC(=S)NCCCn2ccnc2)cc1	ARNT-TACC3 inh 34.8
O=C(COc1ccc(Cl)cc1)NCCCn1ccnc1	ARNT-TACC3 inh 47.1 (no result: E-selectin induc, AF4-AF9 inh, S100A4 MyoIIA, ERAP1 inh)
COC(=O)c1ccc(NC(=S)NCCCn2ccnc2)cc1	none (no result: E-selectin induc)
COc1ccc(CN2C[C@@H](C)[C@H](OC)CN(C)C(=O)c3cc(NC(=O)C4CC4)ccc3OC[C@H]2C)cc1	none (no result: Yeast UUG start)
COc1ccc(NC(=O)Nc2ccc3c(c2)C(=O)N([C@H](C)CO)C[C@H](C)[C@H](CN(C)S(=O)(=O)c2ccc(C)cc2)O3)cc1	none
CCCNC(=O)N1CC2(CCN(C(=O)c3ccncc3)CC2)c2c([nH]c3cc(OC)ccc23)[C@H]1CO	none (no result: ARNT-TACC3 inh, Yeast UUG start)
COc1cccc(/C=N/NC(=O)CNC(=O)c2ccco2)c1O	ARNT-TACC3 inh 35.6 (no result: Yeast UUG start, ERAP1 inh)
O=C(C[n+]1ccccc1)N/N=C/c1ccccc1F	none (no result: ARNT-TACC3 inh, E-selectin induc, Yeast UUG start)
COc1cccc(/C=N/NC(=O)C[n+]2ccccc2)c1O	ARNT-TACC3 inh 67.3 (no result: E-selectin induc, AF4-AF9 inh, Yeast UUG start, S100A4 MyoIIA, ERAP1 inh)
O=C(C[n+]1ccccc1)N/N=C/c1cc(Br)ccc1O	ARNT-TACC3 inh 64.3
Cc1ccc(S(=O)(=O)Nc2ccc3c(c2)C(=O)N([C@H](C)CO)C[C@@H](C)[C@@H](CN(C)S(=O)(=O)c2cn(C)cn2)O3)cc1	none
CCCNC(=O)N1CC2(C1)[C@@H](c1ccccc1)[C@@H](CO)N2C(=O)C1CCCC1	none (no result: ARNT-TACC3 inh, Yeast UUG start)
COc1ccc(S(=O)(=O)Nc2ccc3c(c2)C(=O)N([C@H](C)CO)C[C@@H](C)[C@H](CN(C)Cc2ccc4c(c2)OCO4)OCCCC[C@H](C)O3)cc1	none
O=C1C(Nc2ccccc2)=CC(c2ccc(O)cc2)N1c1ccccc1 (stereo not drawn)	ARNT-TACC3 inh 67.4 (no result: E-selectin induc, Yeast UUG start)
O=C(CC(F)(F)F)N1C[C@H]2[C@@H](c3ccccc31)[C@@H](CO)N2CC1CCOCC1	none
O=C(CC(F)(F)F)N1C[C@@H]2[C@H](c3ccccc31)[C@@H](CO)N2CC1CCOCC1	S100A4 MyoIIA 90.1
CN1C(=O)c2cc(NC(=O)c3cccs3)ccc2OC[C@H]2O[C@@H](CC(=O)Nc3ccc4c(c3)COC4)CC[C@@H]21	none (no result: ARNT-TACC3 inh, Yeast UUG start)
C/C(=N\NC(=O)c1nnn(-c2nonc2N)c1CN(C)c1ccccc1)c1ccccn1	ARNT-TACC3 inh 48.5 (no result: E-selectin induc, AF4-AF9 inh, S100A4 MyoIIA, ERAP1 inh)
C#CCOCCOCCOCCNc1nc(N2CCN(C(=O)C([C@@H](C)O)n3cc([C@@H](N)CCCCN)nn3)CC2)nc(N2CCN(C(=O)[C@H](CCC(=O)O)n3cc([C@@H](N)[C@H](C)CC)nn3)CC2)n1 (stereo partly drawn)	none
C#CCOCCOCCOCCNc1nc(N2CCN(C(=O)[C@H]([C@@H](C)CC)n3cc([C@@H](N)CO)nn3)CC2)nc(N2CCN(C(=O)[C@H](CCCCN)n3cc([C@@H](N)CO)nn3)CC2)n1	none
C#CCOCCOCCOCCNc1nc(N2CCN(C(=O)C([C@@H](C)O)n3cc([C@@H](N)CCCCN)nn3)CC2)nc(N2CCN(C(=O)[C@H](CCCCN)n3cc([C@@H](N)[C@H](C)CC)nn3)CC2)n1 (stereo partly drawn)	AF4-AF9 inh 59.3

Screening results: PubChem, Broad Institute
